Assays:
Type in all cases: cell-based, human
Conditions in all cases: 5,000 cells/well, incubated 4 or 5 days, CELLCOUNTING-LITE
[1] = tested on: NCI-N87 (gastric carcinoma); test: Cell viability assay, NCI-N87
[2] = tested on: SK-BR-3 (breast adenocarcinoma); test: Cell viability assay, SK-BR-3
Experimental: (§1) The human cell lines NCI-N87 (gastric carcinoma), SK-BR-3 (breast adenocarcinoma), and SK—OV-3 (ovarian adenocarcinoma) were seeded at 5,000 cells/well in a culture media in a 96-well flat-bottom plate. Solutions of ADC compounds, ADC-A1, ADC-A2, ADC-C2, ADC-C8, ADC-C29, and ADC-C52, were prepared by a 3-fold serial dilution and added into cells. Trastuzumab deruxtecan (DS-8201) was used as a positive control. The cells were incubated for 4 or 5 days at 37° C. under 5% CO2. CELLCOUNTING-LITE was then added to each well. The plate was mixed and incubated for 10 min at room temperature. The solution in each cell was transferred to a 96-well white opaque plate for reading.

[3] = tested on: SK-OV-3 (ovarian adenocarcinoma); test: Cell viability assay, SK-OV-3
Experimental: as §1

DS-8201
EC50 [1]: 0.29 nM | EC50 [2]: 0.075 nM | Max Killing [2]: 82% | EC50 [3]: 0.162 nM | Max Killing [3]: 34%

From US20260041782A1, “ANTIBODY-DRUG CONJUGATES, PHARMACEUTICAL COMPOSITIONS, AND THERAPEUTIC APPLICATIONS” (priority 2022, published 2026)
